The values below come from ChEMBL document CHEMBL3745693, “Molecular Mechanism of Action of Triazolobenzodiazepinone Agonists of the Type 1 Cholecystokinin Receptor. Possible Cooperativity across the Receptor Homodimeric Complex” (J Med Chem, 2015).

By UniProt entry, the sequences of proteins in these tests, tags left out.
UniProt P32238, whole entry W326A: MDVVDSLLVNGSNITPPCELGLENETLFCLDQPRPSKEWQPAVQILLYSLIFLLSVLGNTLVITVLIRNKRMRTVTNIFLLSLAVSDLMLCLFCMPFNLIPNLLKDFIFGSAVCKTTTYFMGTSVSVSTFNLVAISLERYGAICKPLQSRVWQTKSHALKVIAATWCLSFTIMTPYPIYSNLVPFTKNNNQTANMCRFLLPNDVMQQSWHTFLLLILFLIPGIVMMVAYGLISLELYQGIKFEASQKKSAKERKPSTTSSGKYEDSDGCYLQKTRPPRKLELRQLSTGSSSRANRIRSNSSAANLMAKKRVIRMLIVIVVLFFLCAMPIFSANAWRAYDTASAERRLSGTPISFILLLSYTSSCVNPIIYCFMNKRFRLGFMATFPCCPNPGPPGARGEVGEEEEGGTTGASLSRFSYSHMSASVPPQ
UniProt P32238, whole entry N98T: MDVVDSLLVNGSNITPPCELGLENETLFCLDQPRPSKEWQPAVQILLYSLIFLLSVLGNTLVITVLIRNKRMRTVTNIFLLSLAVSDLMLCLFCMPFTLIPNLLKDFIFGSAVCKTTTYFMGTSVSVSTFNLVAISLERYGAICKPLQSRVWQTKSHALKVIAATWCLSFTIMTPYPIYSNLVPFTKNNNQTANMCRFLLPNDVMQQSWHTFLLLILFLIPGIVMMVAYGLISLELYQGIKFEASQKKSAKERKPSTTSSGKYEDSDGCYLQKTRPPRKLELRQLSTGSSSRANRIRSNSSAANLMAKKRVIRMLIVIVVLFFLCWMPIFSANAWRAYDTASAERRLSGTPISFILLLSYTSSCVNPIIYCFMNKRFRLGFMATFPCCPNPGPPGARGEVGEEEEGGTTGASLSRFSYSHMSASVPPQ
UniProt P32238, whole entry M121A: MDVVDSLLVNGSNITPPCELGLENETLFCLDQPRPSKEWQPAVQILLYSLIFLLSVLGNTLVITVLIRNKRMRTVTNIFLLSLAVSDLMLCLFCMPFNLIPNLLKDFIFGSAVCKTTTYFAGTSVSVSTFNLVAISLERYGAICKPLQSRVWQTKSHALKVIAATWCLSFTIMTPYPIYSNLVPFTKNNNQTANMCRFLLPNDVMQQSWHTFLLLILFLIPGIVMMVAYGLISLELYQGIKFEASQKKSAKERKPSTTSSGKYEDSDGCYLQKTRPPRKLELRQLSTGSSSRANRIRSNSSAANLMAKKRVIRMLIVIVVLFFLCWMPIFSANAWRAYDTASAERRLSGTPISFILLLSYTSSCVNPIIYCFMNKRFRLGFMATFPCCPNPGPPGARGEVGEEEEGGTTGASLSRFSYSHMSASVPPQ
UniProt P32238, whole entry V125A: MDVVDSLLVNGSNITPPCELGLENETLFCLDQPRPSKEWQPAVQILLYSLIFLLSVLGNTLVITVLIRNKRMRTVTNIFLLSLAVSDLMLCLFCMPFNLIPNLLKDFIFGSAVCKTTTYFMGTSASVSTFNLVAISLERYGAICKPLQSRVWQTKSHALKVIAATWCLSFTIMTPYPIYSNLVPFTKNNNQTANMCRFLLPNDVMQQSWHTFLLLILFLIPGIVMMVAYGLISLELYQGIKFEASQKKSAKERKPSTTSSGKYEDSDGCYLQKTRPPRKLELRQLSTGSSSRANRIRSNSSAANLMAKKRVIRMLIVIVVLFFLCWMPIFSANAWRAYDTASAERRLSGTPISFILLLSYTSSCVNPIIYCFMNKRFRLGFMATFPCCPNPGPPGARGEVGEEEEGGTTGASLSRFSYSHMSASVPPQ
UniProt P32238, whole entry: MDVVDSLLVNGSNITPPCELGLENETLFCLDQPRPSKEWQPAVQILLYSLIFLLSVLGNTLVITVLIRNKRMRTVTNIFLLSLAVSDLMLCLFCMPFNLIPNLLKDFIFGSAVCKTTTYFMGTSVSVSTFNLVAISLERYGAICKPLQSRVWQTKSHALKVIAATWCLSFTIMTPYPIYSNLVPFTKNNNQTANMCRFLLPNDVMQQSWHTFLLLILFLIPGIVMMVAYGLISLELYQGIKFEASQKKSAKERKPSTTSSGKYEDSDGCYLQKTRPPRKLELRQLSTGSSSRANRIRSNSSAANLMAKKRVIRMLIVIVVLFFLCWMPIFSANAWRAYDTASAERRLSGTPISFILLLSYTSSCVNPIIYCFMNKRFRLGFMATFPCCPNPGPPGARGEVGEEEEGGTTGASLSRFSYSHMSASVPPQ
UniProt P32238, whole entry L356H: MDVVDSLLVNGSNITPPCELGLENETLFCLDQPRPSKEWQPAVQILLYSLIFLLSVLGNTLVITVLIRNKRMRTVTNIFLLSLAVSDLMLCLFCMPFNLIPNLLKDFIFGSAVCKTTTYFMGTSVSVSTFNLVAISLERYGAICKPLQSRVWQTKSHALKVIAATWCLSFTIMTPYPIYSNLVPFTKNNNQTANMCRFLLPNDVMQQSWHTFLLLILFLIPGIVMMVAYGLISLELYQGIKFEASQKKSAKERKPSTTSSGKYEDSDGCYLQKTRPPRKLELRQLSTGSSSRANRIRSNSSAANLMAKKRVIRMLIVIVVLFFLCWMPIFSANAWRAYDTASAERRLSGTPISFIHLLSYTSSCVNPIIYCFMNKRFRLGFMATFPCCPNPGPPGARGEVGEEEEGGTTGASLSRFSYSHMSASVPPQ
UniProt P32238, whole entry T117V/T118S: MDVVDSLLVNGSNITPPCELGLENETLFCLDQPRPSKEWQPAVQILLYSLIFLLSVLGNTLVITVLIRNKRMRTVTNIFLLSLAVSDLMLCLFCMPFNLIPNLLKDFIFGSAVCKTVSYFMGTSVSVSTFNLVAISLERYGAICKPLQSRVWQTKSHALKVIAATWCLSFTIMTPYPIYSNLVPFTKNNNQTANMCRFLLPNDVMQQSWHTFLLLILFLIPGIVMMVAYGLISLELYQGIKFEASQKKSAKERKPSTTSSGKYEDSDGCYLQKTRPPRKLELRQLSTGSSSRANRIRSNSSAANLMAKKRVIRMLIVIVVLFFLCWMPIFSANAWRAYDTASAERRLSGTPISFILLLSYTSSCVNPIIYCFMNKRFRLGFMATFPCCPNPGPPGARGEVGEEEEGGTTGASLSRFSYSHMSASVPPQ
UniProt P30551, whole entry: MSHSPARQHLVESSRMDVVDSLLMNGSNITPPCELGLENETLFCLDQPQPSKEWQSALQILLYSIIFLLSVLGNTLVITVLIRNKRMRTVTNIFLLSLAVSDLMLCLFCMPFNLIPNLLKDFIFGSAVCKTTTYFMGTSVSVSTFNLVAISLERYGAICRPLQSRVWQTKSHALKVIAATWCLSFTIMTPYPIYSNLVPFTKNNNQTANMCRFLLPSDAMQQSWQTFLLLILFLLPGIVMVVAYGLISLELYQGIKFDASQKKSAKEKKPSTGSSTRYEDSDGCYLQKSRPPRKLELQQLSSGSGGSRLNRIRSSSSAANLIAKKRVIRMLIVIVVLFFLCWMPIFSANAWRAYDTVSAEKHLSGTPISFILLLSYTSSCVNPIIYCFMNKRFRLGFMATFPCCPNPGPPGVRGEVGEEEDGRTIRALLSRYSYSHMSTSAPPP

Molecules are shown by their SMILES.

What is called pEC50 is −log10 of the EC50, conventionally taken in molar units. By EC50 is commonly meant the concentration that produces a half-maximal response. As a reminder, the Ki is a measure of affinity in units of concentration, obtained from inhibition or displacement. The low end stands for a stronger hold on the target, the high end for a looser hold on the target.

Experiment [1] has as its target T1, Cholecystokinin receptor type A (Homo sapiens, UniProt P32238, W326A). Kind of experiment: Displacement of [125I-BDZ-1] from human CCK1R W6.48A mutant expressed in CHO cells after 60 mins by scintillation counter. It counts as cell-based. A general note: Loss of bound radioactivity is the signal in a displacement assay; it reports binding, not function.
For experiment [2], the target named is T2, Gastrin/cholecystokinin type B receptor (Homo sapiens, UniProt P32239, H376L). Briefly: Displacement of [125I-BDZ-2] from human CCK2R H7.39L mutant expressed in CHO cells after 60 mins by scintillation counter. It counts as cell-based.
The target of experiment [3] is T3, Cholecystokinin receptor type A (Homo sapiens, UniProt P32238, N98T). Briefly: Displacement of [125I-BDZ-1] from human CCK1R N2.61T mutant expressed in CHO cells after 60 mins by scintillation counter. It counts as cell-based.
Experiment [4] addresses Cholecystokinin receptor type A (Homo sapiens, UniProt P32238, M121A). Briefly: Displacement of [125I-BDZ-1] from human CCK1R M3.32A mutant expressed in CHO cells after 60 mins by scintillation counter. It is filed as cell-based.
The target of experiment [5] is T4, Cholecystokinin receptor type A (Homo sapiens, UniProt P32238, V125A). Kind of experiment: Agonist activity at human CCK1R V3.36A mutant expressed in CHO cells assessed as intracellular calcium response by fluorescence analysis. It is filed as functional, cell-based. (In general: A change in cytosolic calcium serves as a functional read-out for many receptors and channels.)

For experiment [6], the target named is T2, Gastrin/cholecystokinin type B receptor. Briefly: Agonist activity at human CCK2R H7.39L mutant expressed in CHO cells assessed as intracellular calcium response by fluorescence analysis. It is filed as functional, cell-based.
The target of experiment [7] is Cholecystokinin receptor type A (Homo sapiens, UniProt P32238). Briefly: Displacement of [125I-CCK] from wild-type human CCK1R expressed in CHO cells after 60 mins by scintillation counter. It is filed as cell-based.
The target in experiment [8] is T2, Gastrin/cholecystokinin type B receptor. Briefly: Displacement of [125I-CCK] from human CCK2R H7.39L mutant expressed in CHO cells after 60 mins by scintillation counter. It counts as cell-based.
The target in experiment [9] is T3, Cholecystokinin receptor type A. Briefly: Displacement of [125I-CCK] from human CCK1R N2.61T mutant expressed in CHO cells after 60 mins by scintillation counter. It counts as cell-based.
The target in experiment [10] is T4, Cholecystokinin receptor type A. Kind of experiment: Displacement of [125I-BDZ-1] from human CCK1R V3.36A mutant expressed in CHO cells after 60 mins by scintillation counter. It is filed as cell-based.
In experiment [11] the target is T5, Gastrin/cholecystokinin type B receptor (Homo sapiens, UniProt P32239).
T5 sequence (P32239 whole entry): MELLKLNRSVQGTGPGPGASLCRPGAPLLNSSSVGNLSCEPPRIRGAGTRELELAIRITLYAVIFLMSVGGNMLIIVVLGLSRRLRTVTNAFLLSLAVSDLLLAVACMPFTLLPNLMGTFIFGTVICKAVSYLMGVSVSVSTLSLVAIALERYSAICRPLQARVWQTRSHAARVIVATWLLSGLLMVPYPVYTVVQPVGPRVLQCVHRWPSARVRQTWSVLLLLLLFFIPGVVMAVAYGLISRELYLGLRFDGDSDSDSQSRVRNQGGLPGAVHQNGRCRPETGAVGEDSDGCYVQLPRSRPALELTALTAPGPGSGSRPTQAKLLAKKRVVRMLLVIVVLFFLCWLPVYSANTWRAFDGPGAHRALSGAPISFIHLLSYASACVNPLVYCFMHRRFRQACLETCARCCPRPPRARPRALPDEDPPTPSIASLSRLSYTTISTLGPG
Briefly: Displacement of [125I-CCK] from wild-type human CCK2R expressed in CHO cells after 60 mins by scintillation counter. It counts as cell-based.

Experiment [12] deals with T4, Cholecystokinin receptor type A. Kind of experiment: Displacement of [125I-CCK] from human CCK1R V3.36A mutant expressed in CHO cells after 60 mins by scintillation counter. It is filed as cell-based.
The target in experiment [13] is Gastrin/cholecystokinin type B receptor (Homo sapiens, UniProt P32239, V349I/Y350F). Briefly: Agonist activity at human CCK2R V6.51I, Y6.52F mutant expressed in CHO cells assessed as intracellular calcium response by fluorescence analysis. It counts as functional, cell-based.
The target in experiment [14] is Cholecystokinin receptor type A (Rattus norvegicus, UniProt P30551). Kind of experiment: Displacement of [125I]-BDZ-1 from wild-type rat CCK1R expressed in COS cells after 60 mins by scintillation counter. It counts as cell-based.
In experiment [15] the target is Cholecystokinin receptor type A (Homo sapiens, UniProt P32238, L356H). Briefly: Displacement of [125I-CCK] from human CCK1R L7.39H mutant expressed in CHO cells after 60 mins by scintillation counter. It counts as cell-based.
In experiment [16] the target is T6, Cholecystokinin receptor type A (Homo sapiens, UniProt P32238, T117V/T118S). Kind of experiment: Displacement of [125I-CCK] from human CCK1R T3.28V, T3.29S mutant expressed in CHO cells after 60 mins by scintillation counter. It is filed as cell-based.
Experiment [17] has as its target T1, Cholecystokinin receptor type A. Briefly: Agonist activity at human CCK1R W6.48A mutant expressed in CHO cells assessed as intracellular calcium response by fluorescence analysis. It is filed as functional, cell-based.
Experiment [18] shares this target. Briefly: Displacement of [125I-CCK] from human CCK1R W6.48A mutant expressed in CHO cells after 60 mins by scintillation counter. It counts as cell-based.
Experiment [19] deals with T6, Cholecystokinin receptor type A. Briefly: Displacement of [125I-BDZ-1] from human CCK1R T3.28V, T3.29S mutant expressed in CHO cells after 60 mins by scintillation counter. It counts as cell-based.

With `CC(C)N(Cc1ccccc1)C(=O)CN1C(=O)[C@@H](Cc2c[nH]c3ccccc23)c2nnc(-c3ccccc3)n2-c2ccccc21` [CE-326597], the IC50 in experiment [1] was 269 nM; in experiment [2], 2 nM; in [3], 93.3 nM; in experiment [4], 15.1 nM; in experiment [7] (read-out: IC50) it was 26.8 nM; in [7] (read-out: pIC50 (converted)), 22.4 nM. The IC50 in experiment [8] is 1.7 nM; in experiment [9] it was 2 nM; in experiment [10], 794 nM; in experiment [11] it was 275 nM; in [12], 16.6 nM; in experiment [14] it was 76.5 nM. In experiment [15], the IC50 was 676 nM. In addition, the pEC50 in experiment [5] was found to be 8.51. In addition, the results for the EC50 in experiment [6] and in experiment [13] were 58.9 nM and 282 nM, respectively. For the same compound, the Ki in experiment [7] is 275 nM.

Turning to `Cc1cc(C)cc(C[C@H]2CCCCN2C(=O)CN2C(=O)[C@@H](Cc3n[nH]c4ccccc34)c3nnc(-c4ccccc4)n3-c3ccccc32)c1`, the IC50 was 42.7 nM in [16]; 10 nM in experiment [2]; 105 nM in experiment [3]; 1.41 nM in experiment [18]; 7.24 nM in experiment [19]; 692 nM in experiment [11]. Further, the IC50 in experiment [12] is 10 nM; in experiment [14] it was 168 nM; in experiment [15], 794 nM. Further, the EC50 in [5] is 3.31 nM; in experiment [17], 5.01 nM.
